Bioassay records as filed in PubChem BioAssay.
An excerpt weighted towards active compounds, which were near 3.7% of everything screened.
Nrf2 block = Nrf2 pathway inhibition | 360,000 tested, 2.1% active | A549 ARE-Fluc reporter, luciferase luminescence, 18-24 h | AID 504444 | Potency, µM (doses to about 46 µM), hits mostly inhibitors; also: nearly all actives have a fitted effect of over 60% in size
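Quantitative HTS in A549 cells stably bearing an antioxidant response element-firefly luciferase construct. Inhibition of Nrf2-driven transcription was scored by luminescence after 18-24 h of compound exposure at 37 °C.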
p53 reactivation = mutant p53 re-activation in reporter cells; H1299 p53-A138V BP100-luciferase reporter, luminescence, 24 h; Potency, µM (doses to about 92.2 µM), usual class: activators; 320,000 tested, 0.063% active; also: nearly all actives have a fitted effect of over 45% in size
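H1299 (p53-null), stable ts p53-A138V + BP100-Luc; 1000 cells/well, Opti-MEM/10% FBS; cpd 4 pt, 1:5; 24 h, 37 deg C, 5% CO2; detection reagent 10 min RT; luminescence.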
ClpP mod = qHTS Assay for Activators of ClpP; 340,000 tested, 1.9% active; AID 651965, 2013; purified B. subtilis ClpP, FRET peptide cleavage, 20 min; Potency, µM (series often up to 57.5 µM); ATP-dependent Clp protease proteolytic subunit (Bacillus subtilis (strain 168)), P80244; active = well fitted falling curve with a large enough effect; inconclusive = small, poorly fitted or top-dose-only effect; inactive = no such curve, though single readings can be large or run the other way; also: the source files actives as falling curves though it sought activators and does not explain the sign; nearly all actives have a fitted effect of over 65% in size
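FRET quenching reversal measured ClpP activation: 10 microg/mL B. subtilis ClpP at pH 8 with the FRET-FV decapeptide, read at 430 nm after 320 nm excitation. The 20-min minus 0-min signal was scaled between DMSO/no-enzyme wells and ADEP (5.8 microM final).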
Nrf2 ARE act = activators of Nrf2 (ARE) signaling | AREc32 ARE-luciferase reporter (MCF7-derived line), luminescence, 24 h | Potency, µM (top dose mostly 46.1 µM), most hits filed as activators | 410,000 tested, 0.31% active; also: nearly all actives have a fitted effect of over 65% in size
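ARE activation measured as luciferase luminescence (Steady-Glo, 30 min RT) in AREc32_Fluc cells after 24 hr compound exposure at 37 deg C, 5% CO2; cells seeded overnight at 1000/well in OPTI-MEM, 5% FBS.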
A549 viability = counter-screen for Nrf2 inhibitors: cytotoxicity in A549 cells. 390,000 tested, 0.16% active. Potency, µM (highest dose often 46 µM), hits mostly inhibitors. A549 ARE-Fluc cells, CellTiter-Fluor viability, 18-24 h. AID 504648
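Cytotoxicity counterscreen: CellTiter-Fluor fluorescence was measured in A549 ARE_Fluc cells after 18-24 h of compound exposure in a concentration series. The subsequent BugLite luminescent read reports ARE-luciferase activity.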
miR-21 FLuc = miR-21 reporter, rising signal; Potency, µM (titrated, usually from 38.3 µM); AID 2288; 340,000 tested, under 10 active; HeLa miR-21 FLuc reporter, luciferase, 48 h; active = well fitted rising curve with a large enough effect; inconclusive = small, poorly fitted or top-dose-only effect; inactive = no such curve, though single readings can be large or run the other way;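 note: miR-21 action dims this reporter so a rising signal means less miR-21 action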
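HeLa cells stably expressing CMV-driven firefly luciferase with a downstream miR-21 binding sequence, endogenously expressing miR-21, were treated with titrations (up to about 40uM final) for 48 hours at 37 degree Celsius. Luciferase luminescence was read after lysis.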
Hits are given with their value; - = inactive; ? = inconclusive; . = no result given. Unless noted, calls follow the shape of the dose curve; as a rule, active = well fitted curve in the direction sought with a large enough effect; inconclusive = small, poorly fitted or top-dose-only effect, or another doubt; inactive = no such curve, though single readings can be large; an effect the other way counts as inactive or inconclusive.

SMILES | Nrf2 block | p53 reactivation | ClpP mod | Nrf2 ARE act | A549 viability | miR-21 FLuc
CCC(=O)Nc1ccc(S(=O)(=O)NCc2cccn2Cc2cccc(C)c2)cc1 | . | . | - | - | - | -
CCC1CCc2nc3sc(C(=O)Nc4ccc(C)cc4)c(N)c3cc2C1 (stereo not given) | - | . | ? | - | - | -
Cc1cc2oc(=O)cc(-c3ccccc3)c2c(C)c1-c1ccc(O)cc1 | 16µM | - | - | - | - | .
CC(C)c1ccc(-c2cc(C(=O)N3N=C(C(F)F)CC3(O)C(F)F)c3ccccc3n2)cc1 (stereo not given) | . | ? | 28µM | - | ? | -
O=C(c1cc(C2CC2)nc2ccc(Br)cc12)N1N=C(C(F)F)CC1(O)C(F)F (stereo not given) | 18µM | - | - | - | ? | -
COc1ccc(Cn2c(CCC(=O)NCc3ccc(Cl)cc3)nc3cccnc32)cc1 | - | . | - | - | - | -
O=C(OCC#CCSc1nnc(-c2cccc3ccccc23)o1)c1sc(Cl)c(Cl)c1Cl | - | . | . | . | - | .
Cc1cc(/C=N/n2cnnc2)c(C)n1-c1ccc(OCc2ccc(Cl)cc2)cc1 | 9.2µM | - | - | - | - | -
CCc1ccccc1NC(=O)Cn1c(=O)n(CCCS(=O)(=O)C2CCCCC2)c(=O)c2ccccc21 | ? | . | - | - | - | -
CC(C)Sc1nc2sc3c(c2c(=O)n1-c1ccccc1)CCCC3 | - | . | - | - | - | -
CCN1CCN(c2ncc(C(=O)Nc3ccccc3C(=O)OC)c3ccccc23)CC1 | - | - | - | - | 18µM | -
CCOc1ccccc1NC(=O)c1cnc(N2CCOCC2)c2ccccc12 | . | . | - | - | - | -
CCc1ccc(CNC(=O)c2cnc(N3CCCCC3)c3ccccc23)cc1 | . | . | 32µM | - | - | -
CCc1ccc(NC(=O)c2cnc(N3CCN(c4ccccn4)CC3)c3ccccc23)cc1 | 12µM | - | . | - | ? | -
O=C(NCc1ccccc1Cl)c1cnc(N2CCCCC2)c2ccccc12 | . | . | 32µM | - | - | -
CC(=O)c1ccc(Nc2nc3c(S(=O)(=O)c4ccccc4)nnn3c3ccc(Cl)cc23)cc1 | - | . | - | - | - | -
COc1ccc(Cl)cc1C(=O)Nc1ccc2oc(-c3ccc(C(C)(C)C)cc3)nc2c1 | ? | . | - | - | - | -
Cc1ccc(C(=O)Nc2cccc(C(F)(F)F)c2)cc1Nc1ccccn1 | 21µM | - | - | - | ? | -
CCCCCNCC(=O)Nc1cccc(C(=O)Nc2cccc(C(F)(F)F)c2)c1 | - | - | 28µM | - | ? | -
Cc1ccccc1C(=O)NNC(=S)Nc1cccc(C(F)(F)F)c1 | 12µM | ? | - | - | ? | ?
Cc1ccc(C(=O)Nc2cccc(C(F)(F)F)c2)cc1Nc1cncnc1 | ? | . | - | - | - | -
CC(=O)c1c(C)[nH]c(C(=O)Nc2cccc(C#N)c2)c1C | ? | - | . | - | - | -
CC(=O)c1c(C)[nH]c(C(=O)Nc2cccc(C(F)(F)F)c2)c1C | 21µM | ? | - | - | ? | -
Clc1ccc(-c2noc(-c3cccnc3N3CCN(c4ccccc4)CC3)n2)cc1 | - | . | - | - | ? | -
O=C(NCCCN1CCCCC1)c1sc2ncccc2c1-n1cccc1 | . | . | - | - | - | -
COc1ccc(NC(=S)NC(NC(=O)c2cccc3ccccc23)C(Cl)(Cl)Cl)c([N+](=O)[O-])c1 (stereo not given) | 26µM | - | - | - | ? | -
Cc1ccc(C)c(NC(=S)NC(NC(=O)N(C)C)C(Cl)(Cl)Cl)c1 (stereo not given) | ? | - | - | - | - | -
Cc1ccc(C)c(NC(=S)NC(NC(=O)Cc2cccc3ccccc23)C(Cl)(Cl)Cl)c1 (stereo not given) | 21µM | - | - | - | 21µM | -
Cc1cccc(C(=O)Nc2ccc(NC(=O)Cc3ccc(Cl)cc3)cc2)c1 | - | - | 32µM | - | - | -
O=C(CNC(=O)c1cccc(OC(F)F)c1)Nc1ccc(Cl)cc1 | 26µM | - | . | - | - | -
